Experimental data: patent US11491120B2, “Pharmacological prophylactics against stress-induced affective disorders in females” (The Trustees of Columbia University in the City of New York, priority 2017, dated 2022)

How the values were obtained:
[1] = system: female 129S6/SvEv mice; test: Contextual fear conditioning (CFC), 3-shock, freezing in training and context re-exposure; conditions: (R,S)-ketamine 10 mg/kg, (2R,6R)-HNK 0.025 mg/kg; for Fear behavior, freezing in CFC training and re-exposure: 1 week before CIS, CFC after CIS and FST; for Freezing during CFC Training vs saline: sham and OVX surgery groups
[2] = system: female 129S6/SvEv mice; test: Elevated plus maze (EPM); type: in vivo, mouse; conditions: (R,S)-ketamine 10 mg/kg, (2R,6R)-HNK 0.025 mg/kg; for Time in the closed arms of the EPM vs saline / Time in the open arms of the EPM vs saline: 1 week before LH training, female mice
Procedure: The EPM was administered as previously described (58), with the exception that videos were scored using ANY-maze behavioral tracking software (Stoelting Co., Wood Dale, Ill.).
We have previously shown that prophylactic (R,S)-ketamine attenuates helpless behavior in male mice (18). To validate these findings in females, female mice were administered saline, (R,S)-ketamine, or (2R,6R)-HNK one week prior to LH training (FIG. 4A). Two weeks later, mice were tested for escape latency and for depressive- and anxiety-like behaviors in the FST and elevated plus maze (EPM). CFC was again administered following these behavioral assays.

[3] = system: female 129S6/SvEv mice; test: Open field (OF); type: in vivo, mouse; conditions: (R,S)-ketamine 10 mg/kg, (2R,6R)-HNK 0.025 mg/kg, prophylactic
[4] = system: female 129S6/SvEv mice; test: Forced swim test after 10-day chronic immobilization stress (CIS); type: in vivo, mouse; conditions: (R,S)-ketamine 10 mg/kg, (2R,6R)-HNK 0.025 mg/kg; for Immobility in the FST (Day 2) vs saline: 1 week before 10-day CIS, female mice; for Depressive-Like Behavior: Stress model Chronic Immobilization Stress, time interval 1 week, sex F
[5] = system: female 129S6/SvEv mice; test: Learned helplessness (LH), session length and escape latency; type: in vivo, mouse; conditions: (R,S)-ketamine 10 mg/kg, (2R,6R)-HNK 0.025 mg/kg; for Escape latency in the LH assay vs saline / Session length in the LH assay vs saline: 1 week before LH training, female mice; for Depressive-Like Behavior: Stress model Learned Helplessness, time interval 1 week, sex F
[6] = system: female 129S6/SvEv mice; test: Forced swim test (FST), immobility time, after stress; conditions: for Immobility on FST Day 2 vs saline / Depressive-Like Behavior: (R,S)-ketamine 10 mg/kg, (2R,6R)-HNK 0.025 mg/kg; for Depressive-Like Behavior: Stress model Contextual Fear Conditioning, sex F
[7] = injection one hour prior to FST Day 1, female mice

Compound	Fear behavior, freezing in CFC training and re-exposure [1]	Time in the closed arms of the EPM vs saline [2]	Distance travelled in the OF vs saline [3]	Time in the center of the OF vs saline [3]	Depressive-Like Behavior [4]	Escape latency in the LH assay vs saline [5]	Session length in the LH assay vs saline [5]	Depressive-Like Behavior [5]	Immobility on FST Day 2 vs saline [6, 7]	Depressive-Like Behavior ([6]; time interval 1 week)	also measured
CNC1(c2ccccc2Cl)CCCCC1=O (racemic) [(R,S)-ketamine, (RS)-2-(2-chlorophenyl)-2-(methylamino)cyclohexanone]	do not affect fear behavior	less time in the closed arms	did not alter distance travelled	did not alter distance travelled or time in the center of the OF	↓	did not alter session length or escape latency	did not alter session length	↓	immobility was comparable between the groups for the remainder of the session	↓	Freezing during CFC Training vs saline [1]: comparable freezing levels; Freezing during CFC Training vs saline ([1]; listed as (R, S)-ketamine): neither (R, S)-ketamine nor (2R,6R)-HNK significantly altered freezing; Time in the closed arms of the EPM vs saline ([2]; listed as (R, S)-ketamine): spent significantly less time in the closed arms; Time in the open arms of the EPM vs saline ([2]; listed as (R, S)-ketamine): spent more time in the open arms; Anxiety-Like Behavior ([2]; Stress model Learned Helplessness, time interval 1 week, sex F): ↓; Immobility in the FST (Day 2) vs saline [4]: significantly reduced immobility; Immobility in the FST (Day 2) vs saline ([4]; listed as (R, S)-ketamine): significantly lowered immobility; Immobility on FST Day 2 vs saline ([6]; sham surgery, 1 week before CFC): reduced immobility compared to saline controls; Immobility on FST Day 2 vs saline ([6]; sham surgery, 1 week before CFC, listed as (R, S)-ketamine): decreased immobility time
N[C@@]1(c2ccccc2Cl)CCC[C@@H](O)C1=O [(2R,6R)-HNK, (2R,6R)-hydroxynorketamine]	do not affect fear behavior	but not (2R,6R)-HNK	did not alter distance travelled	did not alter distance travelled or time in the center of the OF	↓	did not alter session length or escape latency	did not alter session length	↓	did not affect immobility throughout the FST	↓	Time in the open arms of the EPM vs saline [2]: but not (2R,6R)-HNK; Depressive-Like Behavior ([6]; time interval 3 days): ↓
N[C@]1(c2ccccc2Cl)CCC[C@H](O)C1=O [(2S,6S)-HNK]	–	–	–	–	–	–	–	–	–	–	Prophylactic efficacy against stress-induced depressive-like behavior ([6]; single injection 1 week before stressor, female mice): but not its enantiomer (2S,6S)-HNK
